“And” between values parts separate entries of the source, which are not always exact repeats. Equal values may be shown once.

Results on one compound are retold here after US10220005B2, “Synergistic therapies of cannabidiol with hypothermia for neuroprotection” (GW Research Limited, priority 2012, dated 2019).

The subject of one experiment is neurons. Put plainly: Piglet HI brain damage with normothermia or hypothermia, neurons (Nissl) in parietal cortex. Format: in vivo. To be noted: for Percentage of necrotic neurons in the cortex, MEAN: HI injury + CBD 1 mg/kg i.v., 6 hours after HI. How it is done: (§1) Sedated and ventilated piglets (1-2 day-old) underwent HI brain damage (hypoxia-FiO2 10%+bilateral carotid artery compression for 30 min).
(§2) Normothermic (NT) piglets were maintained at 37-38° C. using a warmed air blanket.
(§3) Hypothermic (HT) piglets were cooled by a cool water mattress to 33-34° C.
(§4) Thirty min after HI piglets received via the i.v. route either vehicle (VEH) or CBD (1 mg/kg).
(§5) HI brains were obtained for histological studies quantifying the number of neurons
(§6) (Nissl), astrocytes (GFAP) and microglial cells (mGC) (IBA-1) in parietal cortex 6 hours after HI injury.
(§7) Similarly studied animals without HI insult served as controls (Sham, SHM).

The next experiment deals with microglial cells. Kind of experiment: Piglet HI brain damage with normothermia or hypothermia, microglial cells (IBA-1) in parietal cortex. The class given is in vivo. To be noted: for Mean size of microglial cells after HI injury: HI injury + CBD 1 mg/kg i.v., 6 hours after HI. How it is done:
as §1, §2, §3, §4, §5, §6
(§8) By dividing the area percentage of GFAP- or IBA-1-immunoreactive processes and cell bodies (ImageJ) by the number of cells, a mean size of astrocytes or mGC was obtained.
as §7

The next experiment has as its system astrocytes. Put plainly: Piglet HI brain damage with normothermia or hypothermia, astrocytes (GFAP) in parietal cortex. Format: in vivo. To be noted: CBD 1 mg/kg i.v. How it is done:
as §1, §2, §3, §4, §5, §6, §8, §7

A further experiment relates to rat model of HI. Kind of experiment: Rat model of HI, magnetic resonance imaging of brain lesion. The class given is in vivo, Wistar rats. Particulars: rats, CBD 1 mg/kg s.c. single dose, 7 days after HI. How it is done:
A rat model of HI was used as described by (Fernandez-Lopez et al., 2007). Briefly, an HI insult is induced in 7-10 day-old Wistar rats by electro-coagulating the left carotid artery under anaesthesia following by the exposure to 10% oxygen for 120 min.
After the end of HI, pups were treated with 0.1 mL s.c. of vehicle or CBD (1 mg/kg) in a single dose.
Sham operated pups without hypoxia served as controls, and were treated with vehicle or CBD as indicated. The pups were then returned to their dams.
Rats were then euthanized and the brain removed and stored in 4% paraforlmadehide. Magnetic resonance imaging was performed on the brains to evaluate the damaged area. In some rats, MRI was performed 7 days after HI.

As for `C=C(C)[C@@H]1CCC(C)=C[C@H]1c1c(O)cc(CCCCC)cc1O` [CBD, cannabidiol], the Neuronal protection entry in the experiment on neurons (CBD plus hypothermia treated animals, p<0.05) was “best”. The “Percentage of necrotic neurons in the cortex, MEAN” value in the experiment on neurons (Hypothermic) is 4.5% and 4.51%; with neurons (Normothermic), 8.4% and 8.41%. In addition, the “rise in mean size of microglial cells versus control” value came out at 12 pixels in the experiment on microglial cells (CBD and hypothermia, versus hypothermic control (164)); 25 pixels with microglial cells (Normothermic, CBD alone, versus normothermic control (102)). Besides, the “Mean size of microglial cells after HI injury” value is given as 176 pixels in the experiment on microglial cells (Hypothermic (33-34° C.)) and 127 pixels in the experiment with microglial cells (Normothermic (37-38° C.)). Moreover, the “number of microglial cells, vehicle treated versus CBD treated animals” value in the experiment with microglial cells (Hypothermic treatment, CBD 1 mg/kg i.v.) is listed as “no differences”. Moreover, the “astrocyte activity (increased processes equals an increased mean size)” value in the experiment on astrocytes (particularly in CBD plus hypothermia) is reported as “enhanced”. Further, in the experiment on astrocytes (particularly in the hypothermia treated animals), the “HI-induced reduction in the number of astrocytes” value is “prevented”. Further, the “volume of lesion (MRI), HI+CBD versus HI+VEH” value in the experiment with rat model of HI is “similar”.
